Measured values from patent US11548792B2, “Water-soluble gold (III) complexes, methods of producing water-soluble gold (III) complexes and their use” (dated 2023).

What was measured:
[1] = tested on: CFPAC-1 pancreatic cancer line; experiment: Viability test, CFPAC-1 pancreatic cancer line; settings: 24-hour incubation, FIG. 4
[2] = tested on: B16-F10 murine melanoma cell line; experiment: XTT viability assay, B16-F10 murine melanoma cell line; settings: same range of concentration for complex and cisplatin, FIG. 3
[3] = tested on: melanoma (MeWO [ATCC HTB-65]); experiment: XTT viability assay, MeWo human melanoma cell line; settings: same range of concentration for complex and cisplatin, FIG. 2

diamminedichloroplatinum II
viability in the entire concentration range [1]: resistance | biological activity towards the cells in the studied concentration range [2]: weak inhibitory effect | biological activity towards the cells in the studied concentration range [3]: only a weak inhibitory effect
